## Measured affinities in a library of Ab-14 heavy chain variants

Source: Li et al. 2023 (doi:10.1038/s41467-023-39022-2), MIT Lincoln Laboratory and A-Alpha Bio; data file from the FLAb repository.

All variants were tested on one target, the spike HR2 peptide PDVDLGDISGINAS (SARS-CoV-2).

Parent scFv Ab-14: VH joined to VL by three GGGGS repeats. Changes lie in the heavy chain CDRs alone.
VH: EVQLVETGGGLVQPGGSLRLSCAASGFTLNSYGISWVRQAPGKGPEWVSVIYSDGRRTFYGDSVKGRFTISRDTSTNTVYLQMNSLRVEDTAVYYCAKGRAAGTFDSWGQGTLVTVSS
VL: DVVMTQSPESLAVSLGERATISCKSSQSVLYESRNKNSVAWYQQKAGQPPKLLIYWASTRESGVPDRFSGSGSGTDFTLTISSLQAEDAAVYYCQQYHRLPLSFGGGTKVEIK

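The starting antibody came from a phage panning campaign against this peptide. These sequences belong to a second round, designed from the earlier measurements on random variants of the parent. Their group label is 14H_En_Gibbs (En: ensemble of fine-tuned language models; Gibbs: Gibbs sampling). Affinity was read by AlphaSeq, a pooled yeast mating assay with surface-displayed partners. Binding brings cells together so that they mate, and sequencing counts the barcode pairs among the diploids. Scores were corrected for input abundance and mapped to Kd with protein pairs of known affinity run in the same pool. Mating was done six times.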

Variants are written as CDR1, CDR2 and CDR3 of the heavy chain (limits as in the source). Parent: GFTLNSYGIS, VIYSDGRRTFYGDSVK, GRAAGTFDS. The read-out is the apparent dissociation constant on a log10 scale (nM): the lower, the stronger. A mean of the replicates is given; it leaves out those without a signal. An entry "ND" has no value in the source: the pair was not observed among the diploids in that replicate. This suggests poor binding but is not conclusive. The range of this assay differs from that of the first round, and the authors advise against merging the two. In the paper, a design with two or fewer of six values counts as a poor binder. Three control strains display no target. For all heavy chain designs, 1% of the pairings with them gave a signal, with a median of 2.08 and one signal in twenty below 0.84, so weak values seen in few replicates may be background. Also given: how often the same scFv was detected with the empty control strains, with their mean in brackets.

| CDR-H1 | CDR-H2 | CDR-H3 | log10 Kd, replicates | mean, log10 nM | signal with controls |
|---|---|---|---|---|---|
| GQSLDEYGIS | VIYADGQRKSYMDSVK | GNGTGTLFD | ND / 2.45 / ND / ND / ND / ND | 2.45 | 0 of 18 |
| GFDLNEYGIS | VIYADGRRQAVVQSVK | GKNNVVDSV | ND / ND / ND / ND / ND / ND | ND | 1 of 18 (1.62) |
| GFDLLEYGIS | VIYADGMRVAYAKDVK | GMEGQFTVD | ND / ND / ND / ND / ND / ND | ND | 1 of 18 (2.49) |
| GFGLNEYGIS | VIYADGVRTAYLNNVK | GINSQFDWT | ND / ND / ND / ND / ND / ND | ND | 0 of 18 |
| GFSLDDYGIS | VIYADGRRTMYAESVK | GQIAGSLFN | ND / ND / 1.54 / ND / ND / ND | 1.54 | 0 of 18 |
| GFDLNEYGIS | VIYADGVRSFYADNAK | GNVGIFAEV | ND / ND / ND / ND / ND / ND | ND | 0 of 18 |
| GFSLDEYGIS | VIYADGLRTQYHPKVK | GLQGFIFDQ | ND / ND / ND / ND / ND / ND | ND | 0 of 18 |
| GKDLEEYGIS | VIYADGMRQAYKESVK | GQVAGIGKF | 0.08 / 1.01 / 0.44 / 0.81 / 0.33 / -0.37 | 0.39 | 0 of 18 |
| GFDINEYGVS | VIYADGMRSYYQDKVK | GSLGSLFDV | ND / ND / ND / ND / ND / ND | ND | 1 of 18 (0.98) |
| GFDLNEYGIS | VIYADGLRTQYAESFK | GDLAGYFMS | ND / ND / ND / ND / ND / ND | ND | 0 of 18 |
| GFEIQEYGIS | VIYADGRRQAYAESVK | GTLGGTFST | 0.20 / -0.03 / -0.15 / -0.18 / 0.34 / 0.53 | 0.12 | 0 of 18 |
| GFDLDEYGIS | VIYADGVRSQYHDSVK | GTGGFDIEL | 2.75 / ND / ND / ND / ND / ND | 2.75 | 0 of 18 |
| GFDINEYGIS | VIYADGSRQYYADNVK | GVMNIMMEV | ND / ND / ND / ND / ND / ND | ND | 0 of 18 |
| GQSLDDYGIS | VIYADGMRKAYVDDVK | GYVAGTFDI | -0.14 / -0.42 / -0.38 / -0.39 / -0.38 / -0.22 | -0.32 | 0 of 18 |
| GYDLQEYGVS | VIYADGRRSVYINSVK | GLSAGTFVF | ND / ND / ND / ND / ND / ND | ND | 0 of 18 |
| GMDIENYGIS | VIYADGKRKAYAQKFK | GHTGGTFAD | ND / ND / 0.15 / ND / ND / ND | 0.15 | 0 of 18 |
| GFNIQEYGIS | VIYADGKRTAYAEPVK | GEMGGTIDT | ND / ND / ND / ND / ND / ND | ND | 0 of 18 |
| GFDLEEYGIS | VIYADGMRTQYINAVK | GIAGDQMDV | ND / ND / ND / ND / ND / ND | ND | 0 of 18 |
| GFKLNEYGIS | VIYADGQRVAYTDSFK | GTQAGMVFE | ND / 0.91 / ND / ND / ND / ND | 0.91 | 0 of 18 |
| GFDLAEYGVS | VIYADGKRTAYADHVK | GENLGFFDL | ND / ND / ND / ND / ND / 2.91 | 2.91 | 1 of 18 (2.90) |
| GYDIDEYGIS | VIYADGQRTAYQNAVK | GEQAGIMMY | ND / ND / ND / ND / ND / ND | ND | 0 of 18 |
| GDVLKEYGIS | VIYADGMRTSYVQDVK | GQKSGSFSV | ND / ND / ND / ND / ND / ND | ND | 1 of 18 (4.24) |
| GFDLEKYGIH | VIYADGIRASYSDSVK | GDLSGTLYV | -0.04 / -0.72 / 0.02 / -0.11 / -0.55 / 0.26 | -0.19 | 0 of 18 |
| GDSLDEMGIS | VIYADGQRSFYADSVK | GEHDGLFFQ | ND / ND / ND / ND / ND / ND | ND | 0 of 18 |
| GFDLAEYGVS | VIYADGKRTEYSDHVK | GENAGFFDL | ND / ND / ND / ND / ND / ND | ND | 0 of 18 |
| GFSLDEMGIS | VIYADGQRTAYVDNVK | SVQGVVVGL | ND / ND / ND / ND / 2.15 / ND | 2.15 | 0 of 18 |
| GFDLKEYGIS | VIYADGVRTHYADDVK | GKHTGTNMA | ND / ND / ND / ND / ND / ND | ND | 0 of 18 |
| GDSLAEYGIS | VIYADGKRTAYKNKFK | GQVAGYFDV | ND / ND / ND / ND / ND / ND | ND | 0 of 18 |
| GFNLEEYGIS | VIYADGMRTAYADKVK | GGLDVQEGY | ND / ND / ND / ND / ND / ND | ND | 1 of 18 (1.42) |
| GKSLDEYGIS | VIYADGMRHMYTDSVK | GQFDDGMDL | ND / ND / ND / ND / ND / ND | ND | 0 of 18 |
| GFDIEKYGIS | VIYADGQRVSYDSSVK | GENAGNFMV | ND / ND / ND / ND / ND / 3.14 | 3.14 | 0 of 18 |
| GFSLDEYGIS | VIYADGKRQVYADTVK | GNKDMTFDI | ND / ND / ND / ND / ND / ND | ND | 1 of 18 (2.79) |
| GFDLSEYGIS | VIYADGERANYVSNFK | GEQAGGFVL | 2.05 / 1.78 / 1.45 / 0.56 / 2.42 / 2.90 | 1.86 | 0 of 18 |
| GFDFQEYGIS | VIYADGKRTAYANSVK | GGSNALTTV | ND / ND / ND / ND / ND / ND | ND | 0 of 18 |
| GDNLDEYGIS | VIYADGHRTAYSNPVK | GEYGVVVGD | ND / ND / ND / ND / ND / ND | ND | 0 of 18 |
| GFDLEDYGIS | VIYADGIRMSYAEAVK | GQNSGVIVN | ND / ND / ND / ND / ND / ND | ND | 0 of 18 |
| GFDLDSYGIS | VIYADGRRSAYHDSVK | GQNGSVSFV | ND / ND / ND / ND / ND / ND | ND | 0 of 18 |
| GQDINEYGIS | VIYADGLRQAYSENVK | GNINQFDAV | 4.26 / 3.36 / ND / ND / ND / ND | 3.81 | 0 of 18 |
| GFSLNEYGIS | VIYADGQRKSYADNVK | GYQGSRVSL | ND / ND / ND / ND / ND / ND | ND | 0 of 18 |
| GFNISEYGIS | VIYADGMRSNYADNVK | GHKGNAFID | ND / ND / ND / ND / ND / ND | ND | 0 of 18 |
| GFNLDEEGIS | VIYADGIRTAYQDTVK | GQNVATFNV | ND / ND / ND / ND / ND / 2.03 | 2.03 | 3 of 18 (1.79) |
| GQQLDEYGIS | VIYADGVRSSYVDSVK | GEITGTFSE | ND / ND / ND / ND / ND / ND | ND | 2 of 18 (2.95) |
| GFDLGEYGIS | VIYADGKRTACVTNVK | GTFGGTLLV | ND / ND / ND / ND / ND / ND | ND | 0 of 18 |
| GFDIQDYGIS | VIYADGSRTAYVNSVK | GEQGATLDL | ND / ND / ND / ND / ND / ND | ND | 0 of 18 |
| GESLDEYGIS | VIYADGMRTAYTDDVK | GLVAGTLVD | 0.89 / 0.99 / 2.35 / 2.24 / 1.21 / 1.58 | 1.54 | 0 of 18 |
| GFDLGEYGIS | VIYADGSRSAYAKNVK | GGNVYKDAV | ND / ND / ND / ND / ND / 3.92 | 3.92 | 2 of 18 (2.44) |

The first 4 entries again:

| CDR-H1 | CDR-H2 | CDR-H3 | log10 Kd, replicates | mean, log10 nM | signal with controls |
|---|---|---|---|---|---|
| GQSLDEYGIS | VIYADGQRKSYMDSVK | GNGTGTLFD | ND / 2.45 / ND / ND / ND / ND | 2.45 | 0 of 18 |
| GFDLNEYGIS | VIYADGRRQAVVQSVK | GKNNVVDSV | ND / ND / ND / ND / ND / ND | ND | 1 of 18 (1.62) |
| GFDLLEYGIS | VIYADGMRVAYAKDVK | GMEGQFTVD | ND / ND / ND / ND / ND / ND | ND | 1 of 18 (2.49) |
| GFGLNEYGIS | VIYADGVRTAYLNNVK | GINSQFDWT | ND / ND / ND / ND / ND / ND | ND | 0 of 18 |